Rango-impB inh: prevents formation of the Rango-importin beta complex; Q14974; Rango CFP/YFP FRET sensor + importin beta, 45 min; Potency, µM (highest dose often 92.2 µM), without a hit: at the highest dose inhibition of complex formation; hit rate 0.031% among 340,000; AID 540263; calls by dose curve;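 further: 0% = DMSO wells and 100% = buffer wells lacking importin beta; nearly all actives have a fitted effect of over 15% in size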
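FRET biosensor Rango (snurportin 1 IBB between N-terminal EYFP and C-terminal Cerulean), 50 nM in PBS/1 mM DTT/0.02% Tween-20/0.1% BSA, preincubated 5 min RT with compound; 0.125 microM importin beta added, 45 min RT, CFP/YFP FRET ratio read.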
A549 tox: counter-screen for Nrf2 inhibitors: cytotoxicity in A549 cells; A549 ARE-Fluc cells, CellTiter-Fluor viability, 18-24 h; Potency, µM (highest dose often 46 µM), inactives show at the highest dose activity change, negative = cytotoxicity, most hits filed as inhibitors; hit rate 0.16% among 390,000; AID 504648; further: on the % scale 0 is the no-effect control and ±100 the full control effect
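A549 ARE_Fluc cells in 5% FBS OPTI-MEM were exposed to compounds in concentration-response for 18-24 h at 37 deg C. Viability was read by CellTiter-Fluor fluorescence (Ex 405/Em 525) after 30 min, before the luciferase read.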
Rango release inh: prevents RanGTP from dissociating the Rango-importin beta complex; hit rate 0.071% among 340,000; O95149+P62826; Potency, µM (titrated, usually from 46.1 µM), for inactives: at the highest dose activity change, negative = inhibition; Biochemical FRET Rango-importin beta, RanGTP-induced dissociation; AID 540253; calls by dose curve; further: % of control where 0% means no effect; nearly all actives have a fitted effect of over 45% in size
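FRET read at 45 min, room temperature: inhibitors block the CFP/YFP signal rise when RanGTP (0.6 uM Ran, 2 mM GTP, 0.2 uM RCC1) frees Rango (0.1 uM) from importin beta (0.25 uM). Pre-read after 5 min compound exposure flags interference.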
Nrf2 block: blocks Nrf2 signaling | A549 ARE-Fluc reporter, luciferase luminescence, 18-24 h | Potency, µM (series often up to 46 µM), without a hit: at the top dose activity change, negative = inhibition, hits mostly inhibitors | hit rate 2.1% among 360,000 | AID 504444; further: on the % scale 0 is the no-effect control and ±100 the full control effect; nearly all actives have a fitted effect of over 60% in size
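Nrf2 activity is the BugLite luminescence, read 15 min after reagent at room temperature, following CellTiter-Fluor cytotoxicity readout (30 min, 37C). Compound titrations were applied for 18-24 h to 5000 A549 ARE_Fluc cells/well in 5% FBS OPTI-MEM.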
Nrf2 activator: Nrf2 pathway activation; Potency, µM (top dose mostly 46.1 µM), for inactives: top-dose activation, actives largely listed as activators; hit rate 0.31% among 410,000; AREc32 ARE-luciferase reporter (MCF7-derived line), luminescence, 24 h; further: % of control where 0% means no effect; nearly all actives have a fitted effect of over 65% in size
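ARE activation measured as luciferase luminescence (Steady-Glo, 30 min RT) in AREc32_Fluc cells after 24 hr compound exposure at 37 deg C, 5% CO2; cells seeded overnight at 1000/well in OPTI-MEM, 5% FBS.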
Starred values were filed as active, the others as inactive; ? = inconclusive; / = no result; [ ] = another dose, or the depositor's remark. Shown are actives, neighbours in structure and some others; about 2.3% of the full set was active somewhere. Unless noted, the call rests on the fitted dose curve; in most records, active means well fitted curve in the direction sought with a large enough effect; inconclusive means small, poorly fitted or top-dose-only effect, or another doubt; inactive means no such curve, though single readings can be large; an effect the other way counts as inactive or inconclusive. Potency means the concentration at half of the fitted maximal effect.

SMILES | Rango-impB inh | A549 tox | Rango release inh | Nrf2 block | Nrf2 activator
O=C(Nc1ccc(S(=O)(=O)Nc2nccs2)cc1)c1cccc(N2C(=O)c3ccccc3C2=O)c1 | ? | -8.4% | -18.9% | 6.4% | -0.5%
COc1cc(F)c(S(=O)(=O)N2CCN(S(=O)(=O)c3ccc(N)cc3)CC2)c(F)c1 | / | 2.6% | / | -6.3% | /
CSCc1ccc(C(=O)NC(C)c2cnn(-c3ccccn3)c2C)o1 (centres undefined) | -5.8% | 2.4% | 20.0% | 13.3% | -0.7%
CC(C)Cn1c2c(c(O)c(C(=O)Nc3nccs3)c1=O)CCCC2 | 5.3% | -11.3% | 0.4% | 20.6µM* | 0.0%
CCCn1c2c(c(O)c(C(=O)Nc3nccs3)c1=O)CCCC2 | -2.1% | -2.0% | 1.9% | ? | 2.7%
CCOc1ccc(CCNC(=O)CN2C(=O)COc3ccc(S(=O)(=O)N4CCC(C)CC4)cc32)cc1 | / | -6.8% | / | 0.6% | -0.9%
CCN(CC)CCNC(=O)c1[nH]c2ccccc2c1Sc1ccc(Cl)cc1 | / | -0.7% | / | -20.0% | 8.5%
CC1CCN(C(=O)CSc2nnc3c(n2)[nH]c2ccccc23)CC1 | -3.9% | -24.5% | -3.3% | 8.2µM* | 0.4%
O=C(O)CSc1nnc2c(n1)[nH]c1ccccc12 | -0.4% | -8.8% | -15.2% | 0.1% | 3.0%
COc1ccc(C(=O)COC(=O)CN2CC(=O)Oc3ccccc32)cc1Br | 4.7% | -19.0% | 8.5% | 0.2% | 14.1µM*
CCOC(=O)c1sc(N2C(=O)C(O)=C(C(=O)c3ccc(C)o3)C2c2cccc([N+](=O)[O-])c2)nc1C (centres undefined) | ? | ? | ? | 23.1µM* | 0.9%
CCOC(=O)c1sc(N2C(=O)C(O)=C(C(=O)c3ccc(C)o3)C2c2ccc(OC)c(OC)c2)nc1C (centres undefined) | ? | ? | ? | ? | 0.1%
COc1ccccc1NC(=O)CSc1nncn2c1cc1sccc12 | / | 2.4% | / | -26.0% | 11.6%
O=C(CSc1nncn2c1cc1sccc12)Nc1ccccc1C(F)(F)F | / | 12.7% | / | 20.6µM* | 1.6%
O=C(/C=C/c1ccc(-c2ccccc2[N+](=O)[O-])o1)c1ccc(Br)cc1 | -2.3% | -0.4% | -20.9% | -7.5% | 2.51µM*
O=C(/C=C/c1ccc(-c2ccccc2[N+](=O)[O-])o1)c1ccc(F)cc1 | ? | -8.2% | -7.0% | 11.9% | ?
O=C(CN1C(=O)CCC1=O)c1ccc(-c2ccccc2)cc1 | -1.3% | 3.7% | 0.9% | ? | 5.6%
N=c1ccn(CC(=O)c2ccc(-c3ccccc3)cc2)cc1 | 1.1% | ? | -7.3% | 7.31µM* | 6.1%
Cc1ccc(C(=O)C[n+]2cc(Br)cc(Br)c2)cc1[N+](=O)[O-] | 5.9% | 5.7% | -9.1% | 14.7% | 3.3%
O=C(CN(Cc1ccco1)C(=O)c1ccc([N+](=O)[O-])cc1)Nc1ccccc1C(F)(F)F | 1.2% | -7.9% | 14.2% | 6.4% | 2.6%
CC(C)COc1ccc(C(=O)N(CC(=O)Nc2ccccc2C(F)(F)F)Cc2ccco2)cc1 | -3.3% | ? | -12.6% | 18.4µM* | 3.2%
Cc1cc(F)ccc1NC(=O)Cn1nc(N2CCN(c3ccccc3)CC2)ccc1=O | / | -14.1% | / | -8.1% | -0.3%
Cc1cccc(NC(=O)c2ccc(Cn3nc(N4CCN(c5ccccc5)CC4)ccc3=O)o2)c1C | / | ? | / | 20.6µM* | -0.3%
COC(=O)c1ccc(COc2ccccc2/C=C/C(=O)c2ccc(OCC(=O)O)cc2)cc1 | 3.2% | -1.0% | 0.7% | 1.9% | 17.8µM*
CCCNc1nc(Nc2ccc(C)cc2)nc(N2CCCC2)n1 | 46.1µM* | -26.9% | -19.8% | ? | 3.3%
Fc1cccc(NCCc2c[nH]c3ccccc23)n1 | -4.3% | 9.6% | 16.5% | ? | 5.1%
COCCNc1c2c(nc3ccccc13)CCC2 | -1.8% | 0.7% | 5.5% | 2.9% | -0.6%
c1ccc2c(NCCc3c[nH]c4ccccc34)c3ccccc3nc2c1 | ? | ? | 14.6µM*[inhibitor] | ? | -3.3%
OCCCNc1c2ccccc2nc2ccccc12 | ? | ? | ? | 8.2µM* | -1.1%
CN(C)CCCNc1c2c(nc3ccccc13)CCC2 | 0.1% | 13µM* | -1.4% | 5.1% | -2.5%
Cc1ccccc1OCC(=O)OCC(=O)Nc1cc(S(=O)(=O)N2CCCCC2)ccc1Cl | -0.8% | 0.0% | 3.6% | -16.5% | -0.6%
O=[N+]([O-])c1cccc(CN2C(COCc3ccccc3)CCC=CS2(=O)=O)c1 (centres undefined) | / | -6.2% | / | -9.1% | /
Cc1cc(C(=O)COC(=O)c2ccc(O)cc2O)c(C)n1-c1ccccc1 | -3.4% | -10.6% | -4.5% | -8.1% | -0.5%
COc1ccc(-n2c(C)cc(C(=O)COC(=O)c3ccc(O)cc3O)c2C)cc1 | 6.7% | ? | 0.3% | 13µM* | -0.9%
FC(F)(F)c1ccc(C2[C@H]3CN(Cc4cccnc4)[C@H](c4ccccc4)C34CC2(c2cccnc2)C4)cc1 (some centres undefined) | -1.1% | ? | 5.5% | 25.9µM* | -1.0%
FC(F)(F)c1ccc(C2[C@H]3CN(Cc4ccc(-c5ccccc5)cc4)[C@H](c4ccccc4)C34CC2(c2cccnc2)C4)cc1 (some centres undefined) | -3.4% | -3.2% | -0.9% | 15.9% | 4.8%
Nc1cc(Cl)ccc1C(=O)OCC(=O)N1CCOCC1 | -1.1% | 0.7% | 8.0% | 1.3% | -0.2%
COC(=O)c1c(Oc2ccc(Br)cc2)nnc(-c2ccccc2)c1-c1ccccc1 | / | 18.1% | / | -24.3% | -0.8%
Cc1nn(Cc2c(Cl)cccc2Cl)c(C)c1NC(=O)c1cn(-c2ccccc2)nc1-c1ccccc1 | -2.5% | 13µM* | -2.5% | 11.6µM* | -1.6%
Cc1nc2cc(-c3ccccc3)sc2c(=O)n1N | -0.2% | -0.5% | 11.0% | 4.11µM* | -0.2%
Cn1c(NCc2ccccc2)nc2cc(-c3ccccc3)sc2c1=O | / | / | / | / | 26.1%
COc1ccc(-c2cc3nc4n(c(=O)c3s2)CCC4)cc1 | -2.7% | 1.9% | -1.7% | ? | -2.1%
COc1ccc(-c2cc3nc(C)n(N)c(=O)c3s2)cc1 | -3.2% | 16.1% | -4.8% | 6.51µM* | -3.2%
Nc1c(C(O)(C(F)(F)F)C(F)(F)F)cc(C(O)(C(F)(F)F)C(F)(F)F)c2ccccc12 | -0.3% | ? | 10.8% | 14.6µM* | -0.3%
O=C(CN1CCN(C(=O)CN2C(=O)NC3(CCCC3)C2=O)CC1)Nc1cccc(F)c1 | -1.5% | 3.3% | 0.9% | 3.7% | 0.3%
COc1cccc(C2c3c(ncn(Cc4cccs4)c3=N)Oc3ccc4ccccc4c32)c1 (centres undefined) | / | -2.8% | / | -3.0% | /
Fc1cc(F)cc(Nc2nc(NC3CCCC3)nc(C3CO3)n2)c1 (centres undefined) | / | 1.8% | / | 12.1% | /
CSc1nccc(-c2cc(Cl)sc2Cl)n1 | -1.5% | 14.3% | 2.8% | / | 11.2µM*
CSc1nccc(-c2c(-c3ccc(Cl)cc3)noc2C)n1 | 0.1% | 17.9% | 4.1% | -4.7% | 0.1%

No new results follow: entries from further up.
SMILES | Rango-impB inh | A549 tox | Rango release inh | Nrf2 block | Nrf2 activator
Nc1c(C(O)(C(F)(F)F)C(F)(F)F)cc(C(O)(C(F)(F)F)C(F)(F)F)c2ccccc12 | -0.3% | ? | 10.8% | 14.6µM* | -0.3%
O=C(CN1CCN(C(=O)CN2C(=O)NC3(CCCC3)C2=O)CC1)Nc1cccc(F)c1 | -1.5% | 3.3% | 0.9% | 3.7% | 0.3%
COc1cccc(C2c3c(ncn(Cc4cccs4)c3=N)Oc3ccc4ccccc4c32)c1 (centres undefined) | / | -2.8% | / | -3.0% | /
Fc1cc(F)cc(Nc2nc(NC3CCCC3)nc(C3CO3)n2)c1 (centres undefined) | / | 1.8% | / | 12.1% | /
CSc1nccc(-c2cc(Cl)sc2Cl)n1 | -1.5% | 14.3% | 2.8% | / | 11.2µM*
CSc1nccc(-c2c(-c3ccc(Cl)cc3)noc2C)n1 | 0.1% | 17.9% | 4.1% | -4.7% | 0.1%

Compound activity: PubChem, National Center for Advancing Translational Sciences (NCATS)
